Source: ChEMBL document CHEMBL2176986, “Selective and potent urea inhibitors of cryptosporidium parvum inosine 5'-monophosphate dehydrogenase” (J Med Chem, 2012)

Test system: Toxoplasma gondii
Assay: Selectivity ratio of EC50 of wild type Toxoplasma gondii to EC50 of Toxoplasma gondii expressing Cryptosporidium parvum IMPDH
Procedure, shortened: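 Selectivity is the EC50 against wild-type RH T. gondii divided by the EC50 against the CpIMPDH-dependent strain. Both were measured by daily YFP fluorescence of parasites on hTERT human foreskin fibroblasts over 6-7 days, with inhibition taken in exponential growth.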

**Q.** How did the “Ratio EC50” value turn out when CC(O)c1cccc(C(C)(C)NC(=O)Nc2ccc(Cl)cc2)c1 (stereo not drawn) was run?
**A.** 20

**Q.** How did the “Ratio EC50” value turn out when CC(C)(NC(=O)Nc1ccc(Cl)c(C(N)=O)c1)c1cccc(-c2ccccc2)c1 was run?
**A.** 30

**Q.** Which “Ratio EC50” value does the source give for CC(=O)c1cccc(C(C)NC(=O)Nc2ccc(Cl)cc2)c1 (stereo not drawn) here?
**A.** 4
